{
  "sequences": {"note": "Sequences of proteins named here, by UniProt entry; tags and fusion partners are left off. A change or cut given only in a name is not applied to a line headed by its entry.", "UniProt P10828": "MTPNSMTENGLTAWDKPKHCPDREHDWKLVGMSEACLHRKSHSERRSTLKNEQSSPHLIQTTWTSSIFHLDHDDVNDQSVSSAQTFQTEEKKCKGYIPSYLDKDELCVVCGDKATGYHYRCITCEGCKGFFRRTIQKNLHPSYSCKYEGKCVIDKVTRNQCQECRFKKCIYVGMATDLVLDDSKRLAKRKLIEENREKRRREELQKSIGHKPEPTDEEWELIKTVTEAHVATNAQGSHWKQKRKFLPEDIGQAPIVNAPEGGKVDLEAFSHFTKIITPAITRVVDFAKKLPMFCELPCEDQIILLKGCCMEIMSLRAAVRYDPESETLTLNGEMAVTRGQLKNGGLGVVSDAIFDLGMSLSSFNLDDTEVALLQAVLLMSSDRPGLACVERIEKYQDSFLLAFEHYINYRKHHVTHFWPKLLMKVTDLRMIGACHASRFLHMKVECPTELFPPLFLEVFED"},
  "source": "PubChem BioAssay (NCATS)",
  "note": "Values joined by “and” are separate entries in the source; they are usually repeats but may differ in a detail not shown here. Equal values may be shown once. The list shows a part of the results, in another mix than the full data. Inconclusive results are not listed. Active and inactive are the calls of the source. The call rests on the fitted dose curve.",
  "data": [
    {"target": "Thyroid hormone receptor beta (Homo sapiens) (UniProt P10828)", "test": "qHTS assay for small molecule agonists of thyroid hormone receptor beta signaling (AID 588545)", "conditions": "TR-UAS-bla GripTite HEK 293, beta-lactamase ratio, agonist mode, 18 h, percent of T3 response, DMSO as zero; at 76.7 µM (top of the series)", "from_the_text": "NIH Chemical Genomics Center [NCGC]\nU.S. Environmental Protection Agency [EPA]\nNational Institutes of Environmental Health Sciences [NIEHS]\nNational Toxicology Program [NTP]\nThyroid hormone receptor (TR) belongs to nuclear hormone receptor superfamily. There are two subtypes for TR: TR-alpha and TR-beta. TR-beta plays a major role in regulating plasma cholesterol levels and it mediates the biological activities of thyroid hormone. Screening environmental chemicals on TR-beta signaling will provide important information for the mechanism of compound action.\nNCGC Assay Protocol Summary\nUsing a beta-lactamase reporter-gene under control of the TR response element, a cell-based assay [GeneBLAzer TR-UAS-bla-GripTite assay developed by Invitrogen] was used to measure TR-beta signaling in agonist mode. TR-UAS-bla-GripTite HEK 293 cells were used with assay medium containing 2% charcoal/dextran FBS, 0.1 mM NEAA and 1 mM sodium pyruvate. The assay was performed in clear bottom black Greiner 1536-well plates. T3 was used as a positive control in the screen. Library compounds were measured for their ability to stimulate the reporter gene activity. Compounds were screened in a titration series in 1536-well format. The fluorescence intensity (405 nm excitation, 460/530 nm emission) was measured using an EnVision plate reader. Data was normalized relative to T3 control (10 nM, 100%), and DMSO only wells (basal, 0%). Concentration-response titration points for each compound were fitted to the Hill equation yielding concentrations of half-maximal stimulation (EC50) and maximal response (efficacy) values.\nqHTS protocol for TR-beta beta-lactamase assay in agonist mode\n[Step] [Parameter] [Value] [Description]\n1. Reagent; 6 uL; 2500 cells/well\n2. Incubation; 37 C for 4 hrs\n- Dose response; start 3.8 uM, 1:3 dilutions, duplicates in first column\n- Two columns of each 10 and 0.4 nM (finals) concentrations.\n5. Incubation; 37 C for 18 hrs\n6. Detection reagent; 1 uL of CCF4-dye\n7. Incubation; RT for 2 hrs\n8. Detection; Fluorescence; Envision plate reader", "values": [
      {"smiles": "ClP(Cl)c1ccccc1", "activation": "inactive: -6.04%"},
      {"smiles": "CC(C)OP(=O)(OC(C)C)SCCNS(=O)(=O)c1ccccc1", "activation": "inactive: -1.57%"},
      {"smiles": "CCCCO[P+](=O)OCCCC", "activation": "inactive: 1.18%"},
      {"smiles": "O=[N+]([O-])c1ccc([N+](=O)[O-])cc1", "activation": "inactive: -27%"},
      {"smiles": "CN(N=O)C(=N)N[N+](=O)[O-]", "activation": "inactive: 6.33%"},
      {"smiles": "COP(=S)(Cl)OC", "activation": "inactive: -0.101%"},
      {"smiles": "Cc1cc([N+](=O)[O-])cc([N+](=O)[O-])c1O", "activation": "inactive: 5.26% and inactive: -6.47%"},
      {"smiles": "NC(=O)Nc1ccc([As](=O)(O)O)cc1", "activation": "inactive: -19.6%"},
      {"smiles": "CC(C)OP(=S)(OC(C)C)SCCNS(=O)(=O)c1ccccc1", "activation": "inactive: -5.32% and inactive: -4.91%"},
      {"smiles": "O=C1C2CC=CCC2C(=O)N1SC(Cl)(Cl)C(Cl)Cl", "note": "(stereo not given)", "activation": "inactive: 12.5%"}
    ]}
  ]
}
